Assay results reported in PubChem BioAssay (NCI).
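Five compound concentrations were applied to cells in 96-well plates for 48 hours; endpoints were derived by simple linear interpolation of the resulting dose-response curve. Abbreviation: GI50, concentration required for 50% inhibition of growth. Definition used: TGI = concentration required for complete inhibition of growth.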

What was measured:
Experiment in all cases: inhibition of tumour cell growth, NCI panel, 48 h
[1] = system: SNB-19 CNS
[2] = system: HCT-15 colon
[3] = system: MALME-3M melanoma
[4] = system: OVCAR-8 ovarian
[5] = system: CCRF-CEM leukemia
[6] = system: MCF7 breast
[7] = system: HT29 colon
[8] = system: ACHN renal
[9] = system: LOX IMVI melanoma
[10] = system: NCI-H226 lung
[11] = system: PC-3 prostate
[12] = system: SW-620 colon
[13] = system: OVCAR-3 ovarian
[14] = system: KM12 colon
[15] = system: A549 NSCLC
[16] = system: SR leukemia
[17] = system: NCI-H522 lung
[18] = system: HCT-116 colon
[19] = system: UACC-62 melanoma
[20] = system: MDA-MB-231 breast
[21] = system: T-47D breast
[22] = system: SF-268 CNS
[23] = system: COLO 205 colon
[24] = system: SK-MEL-28 melanoma
[25] = system: HL-60(TB) leukemia
[26] = system: SK-MEL-5 melanoma
[27] = system: MOLT-4 leukemia
[28] = system: HS 578T breast
[29] = system: CAKI-1 renal
[30] = system: UACC-257 melanoma

## BrC1CSc2cccc3ccc[n+](c23)C1 (centres undefined)
[1]
  TGI: 84.1 µM
[2]
  GI50: 29.5 µM
  TGI: > 100 µM
[3]
  GI50: 11.6 µM
  TGI: 24.2 µM
[4]
  GI50: 14.1 µM
  TGI: 42.5 µM
[5]
  GI50: 6.31 µM
  TGI: 44.5 µM
[6]
  GI50: 14.2 µM
  TGI: 65.6 µM
[7]
  GI50: 15.2 µM
  TGI: 65.3 µM
[8]
  GI50: 2720 nM
  TGI: 42.2 µM
[9]
  GI50: 16.2 µM
  TGI: 38.9 µM
[10]
  GI50: 25 µM
  TGI: 55.7 µM
[11]
  GI50: 32.2 µM
  TGI: > 100 µM
[12]
  GI50: 17.4 µM
  TGI: > 100 µM
[13]
  GI50: 18.1 µM
  TGI: 61.8 µM
[14]
  GI50: 13.4 µM
  TGI: 52.7 µM
[15]
  GI50: 7.1 µM
  TGI: 59.9 µM
[16]
  GI50: 2330 nM
  TGI: 9.68 µM
[17]
  GI50: 2300 nM
  TGI: 8.56 µM
[18]
  GI50: 12 µM
  TGI: 44 µM
[19]
  GI50: 16.3 µM
  TGI: 33.2 µM
[20]
  GI50: 15 µM
  TGI: 80.7 µM
[21]
  GI50: 8.56 µM
  TGI: 58.7 µM
[22]
  GI50: 2870 nM
  TGI: 46.2 µM
[23]
  GI50: 10.6 µM
  TGI: 29.4 µM
[24]
  GI50: 37.6 µM
  TGI: > 100 µM
[25]
  GI50: 2650 nM
  TGI: 8.92 µM
[26]
  GI50: 7.41 µM
  TGI: 23 µM
[27]
  GI50: 1420 nM
  TGI: 5.05 µM
[28]
  GI50: 37.1 µM
  TGI: 75.1 µM
[29]
  GI50: 8.8 µM
  TGI: 93.3 µM
[30]
  GI50: 21.8 µM
  TGI: 61.1 µM
